The values that follow come from patent US11850306B2, “Method for drying hydrogel comprising nanofibrillar cellulose and a dried hydrogel comprising nanofibrillar cellulose” (UPM-KYMMENE CORPORATION, priority 2016, dated 2023).

Data set [1] in a line: In vitro release studies: diffusion coefficients of model compounds from NFC hydrogels. The data set is classed as physicochemical. The following applies: for Diffusion coefficients for model compounds in different NFC hydrogels: no excipients; for Diffusion coefficient in NFC-hydrogels: pH 7.4, 37° C.
For data set [2] the following is noted: cited from earlier work.

With FITC-dextran, the “Diffusion coefficients for model compounds in different NFC hydrogels” value is given as 59.44 10^−8 cm^2/s in data set [1] (3% NFC) and 40.01 10^−8 cm^2/s in data set [1] (6.5% NFC). In data set [1] (3% vs 6.5% NFC hydrogel), the “Diffusion rate through 3% NFC hydrogel relative to 6.5% NFC hydrogel (times faster)” value was determined as 1.5 times. In addition, the “Diffusion coefficient in NFC-hydrogels” value is 59.44 10^−8 cm^2/s in data set [1] (NFC hydrogel 11804-3 (3.2%)), 40.03 10^−8 cm^2/s in data set [1] (NFC hydrogel 11814-1 (5.7%)), 47.52 10^−8 cm^2/s in data set [1] (NFC hydrogel 11814-3 (5.7%)) and 40.01 10^−8 cm^2/s in data set [1] (NFC hydrogel 11815-3 (6.8%)). Moreover, the “Charge at pH 7.0” value in data set [2] (pH 7.0) is listed as “ø”. Further, the “Charge of compounds at pH 7.4” value in data set [2] (pH 7.4) is listed as “dextran (ø)”.
